As a reminder, the IC50 is the point on the concentration scale where inhibition reaches its midpoint. Low readings indicate higher potency, high ones lower potency.

Amino acid sequences for entries named in this document (tags omitted). Residues count along the entry.
UniProt P23946, 22-247 limits assumed: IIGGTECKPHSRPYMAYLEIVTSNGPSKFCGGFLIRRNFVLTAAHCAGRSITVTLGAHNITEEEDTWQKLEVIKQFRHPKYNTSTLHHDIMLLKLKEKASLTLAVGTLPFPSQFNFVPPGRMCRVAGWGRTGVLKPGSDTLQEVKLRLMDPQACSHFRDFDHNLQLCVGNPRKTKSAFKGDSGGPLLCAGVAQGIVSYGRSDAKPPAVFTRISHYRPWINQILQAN

The values that follow come from EP1099690A1, “MONOCYCLIC $g(b)-LACTAM COMPOUNDS AND CHYMASE INHIBITORS CONTAINING THE SAME” (SHIONOGI & CO., LTD., priority 1998, dated 2000).

The target in this assay is human chymase (Homo sapiens, UniProt P23946). Nature of the assay: Chymase inhibitory activity (Suc-Ala-Ala-Pro-Phe-pNA substrate, absorption 405 nm). To be noted: purified human chymase, 30 minutes at 37 °C preincubation, substrate 0.5 mM.
The molecule `CCCC(NC(=O)N1C(=O)[C@@H](Cc2ccccc2OC)[C@@H]1Oc1ccc(C(=O)O)cc1)c1ccc2c(c1)OCO2` (stereo partly drawn) gave an IC50 of 2.25 nM.

In turn, `CC(NC(=O)N1C(=O)C(Cc2ccccc2)C1Oc1ccc(C=CC(=O)N2CCCC2C(N)=O)cc1)c1ccccc1` (stereo not drawn) came in with an IC50 of 3 nM.

`CC(NC(=O)N1C(=O)C(Cc2ccccc2)C1Oc1ccc(C(=O)N2CCCC2C(N)=O)cc1)c1ccccc1` (stereo not drawn) registered an IC50 of 0.7 nM.

The molecule `CCCC(NC(=O)N1C(=O)[C@@H](Cc2ccccc2OC)[C@@H]1Oc1ccc(C(=O)N2CCN(C3CCCCC3)CC2)cc1)c1ccc2c(c1)OCO2` (stereo partly drawn) registered an IC50 of 2.1 nM.

Molecule `CCOc1ccccc1C[C@@H]1C(=O)N(C(=O)N[C@@H](c2ccccc2)C(C)CC)[C@H]1Oc1ccc(C(=O)O)cc1` (stereo partly drawn) gave an IC50 of 10 nM.

For `CCCC(NC(=O)N1C(=O)[C@@H](Cc2ccccc2OC)[C@@H]1Oc1ccc(C(=O)N2CCN(C)CC2)cc1)c1ccc2c(c1)OCO2` (stereo partly drawn), the IC50 turned out to be 0.26 nM.
